## Antibody variant affinities, Ab-14 heavy chain, assay B

The measurements come from Li et al. 2023 (doi:10.1038/s41467-023-39022-2) through the FLAb antibody collection.

Target peptide (SARS-CoV-2 spike, HR2 region): PDVDLGDISGINAS

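Phage display of a naive human antibody library on the peptide gave the parent. Designed CDR sequences, proposed from the first random library and measured here. Several design methods are mixed in this list. Affinity was read by AlphaSeq, a pooled yeast mating assay with surface-displayed partners. Binding brings cells together so that they mate, and sequencing counts the barcode pairs among the diploids. Scores were corrected for input abundance and mapped to Kd with protein pairs of known affinity run in the same pool. There are six technical replicates.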

The variants keep the light chain, the linker and the frameworks of Ab-14 (scFv order VH, the linker GGGGSGGGGSGGGGS, VL).
VH: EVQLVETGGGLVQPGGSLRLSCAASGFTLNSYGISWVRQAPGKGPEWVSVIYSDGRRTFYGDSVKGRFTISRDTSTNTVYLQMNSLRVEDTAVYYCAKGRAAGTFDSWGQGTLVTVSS
VL: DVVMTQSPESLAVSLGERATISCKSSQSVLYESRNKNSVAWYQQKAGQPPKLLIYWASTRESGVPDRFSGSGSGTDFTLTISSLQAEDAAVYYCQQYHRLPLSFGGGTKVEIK

Each variant's VH is given in full.
Values are log10 of the apparent Kd in nM; lower means stronger binding.
Averages over replicates are reported, and they cover detected replicates only.
Where no diploid with the target was found in any replicate, the entry reads "no signal": below detection, most likely a poor binder, though not proof of it.
The list is sorted by this average, lowest first, undetected variants last.
The authors averaged sequences with at least three values out of six and counted those with two or fewer as poor binders.
Empty control strains, which show no peptide, gave a signal in 1% of pairings with all heavy chain designs; the median was 2.08 and 95% of these signals were weaker than 0.84. No background was subtracted.
A sequence measured in both rounds can read differently, since the two assays cover different ranges.
The parent sequence was in this pool as ten entries: three were never detected, three once, and four in most replicates, with averages from 0.34 to 2.37.

VH | mean log10 Kd (nM) | seen in
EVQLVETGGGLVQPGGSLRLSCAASGFDLNEYGISWVRQAPGKGPEWVSVIYADGRRTAYSDSVKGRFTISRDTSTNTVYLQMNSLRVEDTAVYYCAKGTNAGTFDIWGQGTLVTVSS | -0.87 | 6 of 6
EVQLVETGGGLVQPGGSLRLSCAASGFDLNEYGISWVRQAPGKGPEWVSVIYADGRRTAYADSVKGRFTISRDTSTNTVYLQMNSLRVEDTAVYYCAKGQVAGTFDQWGQGTLVTVSS | -0.65 | 6 of 6
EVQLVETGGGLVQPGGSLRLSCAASGFDLNEYGISWVRQAPGKGPEWVSVIYADGRRTAYLDSVKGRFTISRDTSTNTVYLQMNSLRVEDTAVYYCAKGNLAGTFDTWGQGTLVTVSS | -0.62 | 6 of 6
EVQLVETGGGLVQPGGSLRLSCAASGFSIDEYGISWVRQAPGKGPEWVSVIYADGLRQHYTNAVKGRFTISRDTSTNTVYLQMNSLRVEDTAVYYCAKGEAAGTFDTWGQGTLVTVSS | -0.10 | 6 of 6
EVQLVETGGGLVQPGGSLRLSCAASGFDLDEYGISWVRQAPGKGPEWVSVIYADGSRTAYADDVKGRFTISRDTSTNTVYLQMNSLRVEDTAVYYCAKGNVAGTFDVWGQGTLVTVSS | 0.05 | 6 of 6
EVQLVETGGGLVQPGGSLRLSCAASGFDLNEYGISWVRQAPGKGPEWVSVIYADGLRTSYADSVKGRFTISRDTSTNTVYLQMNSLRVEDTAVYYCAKGQEAGTFDVWGQGTLVTVSS | 0.11 | 6 of 6
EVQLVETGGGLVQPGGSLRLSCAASGFSLNSYGISWVRQAPGKGPEWVSVIYSDGRRTFYDDSVKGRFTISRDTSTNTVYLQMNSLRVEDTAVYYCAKGRQAGTFDSWGQGTLVTVSS | 0.35 | 6 of 6
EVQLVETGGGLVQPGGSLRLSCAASGFDLNEYGISWVRQAPGKGPEWVSVIYADGVRTAYVDSVKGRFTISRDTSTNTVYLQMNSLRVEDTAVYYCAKGEVAGTFDIWGQGTLVTVSS | 0.38 | 6 of 6
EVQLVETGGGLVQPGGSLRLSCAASAFDIEDYGISWVRQAPGKGPEWVSVIYADGVRAMYVESVKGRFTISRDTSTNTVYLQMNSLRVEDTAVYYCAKGGIAGTFEIWGQGTLVTVSS | 0.70 | 6 of 6
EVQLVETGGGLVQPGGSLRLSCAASGFELNSYGISWVRQAPGKGPEWVSVIYSDGRRTFYLDSVKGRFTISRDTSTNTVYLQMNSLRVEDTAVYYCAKGRNAGTFDSWGQGTLVTVSS | 1.10 | 6 of 6
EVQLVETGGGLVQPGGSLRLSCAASGFDLNEYGISWVRQAPGKGPEWVSVIYADGMRTKASESVKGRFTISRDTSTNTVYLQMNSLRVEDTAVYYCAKGTGDGSFQLWGQGTLVTVSS | 2.34 | 1 of 6
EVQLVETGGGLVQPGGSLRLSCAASGFTLESYGISWVRQAPGKGPEWVSVIYSDGRRTFYSDSVKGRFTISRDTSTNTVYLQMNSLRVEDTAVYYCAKGRAAGVFDSWGQGTLVTVSS | 2.79 | 1 of 6
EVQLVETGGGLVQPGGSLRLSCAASAFPLDSYGISWVRQAPGKGPEWVSVIYSDGRRTFYGDSVKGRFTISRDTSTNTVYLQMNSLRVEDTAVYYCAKGRAAGTALSWGQGTLVTVSS | no signal | 0 of 6
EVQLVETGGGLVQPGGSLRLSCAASGFTLNSYGISWVRQAPGKGPEWVSVIYNDGRRTFYGDSVKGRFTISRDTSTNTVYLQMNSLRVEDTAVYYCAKGRAAGTNKSWGQGTLVTVSS | no signal | 0 of 6
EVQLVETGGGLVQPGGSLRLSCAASGYQLNSYGISWVRQAPGKGPEWVSVIYSDGRRTFYGDSVKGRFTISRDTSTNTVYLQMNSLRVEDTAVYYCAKGRNAGTFDSWGQGTLVTVSS | no signal | 0 of 6

Extract of 2 entries:

{"VH": "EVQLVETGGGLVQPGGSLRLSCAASGFDLNEYGISWVRQAPGKGPEWVSVIYADGLRTSYADSVKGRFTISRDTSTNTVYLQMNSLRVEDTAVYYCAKGQEAGTFDVWGQGTLVTVSS", "mean log10 Kd (nM)": "0.11", "seen in": "6 of 6"}
{"VH": "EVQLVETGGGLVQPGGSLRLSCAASGFDLNEYGISWVRQAPGKGPEWVSVIYADGMRTKASESVKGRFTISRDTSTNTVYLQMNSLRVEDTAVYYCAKGTGDGSFQLWGQGTLVTVSS", "mean log10 Kd (nM)": "2.34", "seen in": "1 of 6"}